Among the data in US9809604B2, “DGAT1 inhibitor and preparation method and use thereof” (Qingdao Huanghai Pharmaceutical Co., Ltd., priority 2013, dated 2017) are IC50 values, retold here.

The chains behind the UniProt entries cited, without tags or fusion partners.
UniProt O75907, whole entry: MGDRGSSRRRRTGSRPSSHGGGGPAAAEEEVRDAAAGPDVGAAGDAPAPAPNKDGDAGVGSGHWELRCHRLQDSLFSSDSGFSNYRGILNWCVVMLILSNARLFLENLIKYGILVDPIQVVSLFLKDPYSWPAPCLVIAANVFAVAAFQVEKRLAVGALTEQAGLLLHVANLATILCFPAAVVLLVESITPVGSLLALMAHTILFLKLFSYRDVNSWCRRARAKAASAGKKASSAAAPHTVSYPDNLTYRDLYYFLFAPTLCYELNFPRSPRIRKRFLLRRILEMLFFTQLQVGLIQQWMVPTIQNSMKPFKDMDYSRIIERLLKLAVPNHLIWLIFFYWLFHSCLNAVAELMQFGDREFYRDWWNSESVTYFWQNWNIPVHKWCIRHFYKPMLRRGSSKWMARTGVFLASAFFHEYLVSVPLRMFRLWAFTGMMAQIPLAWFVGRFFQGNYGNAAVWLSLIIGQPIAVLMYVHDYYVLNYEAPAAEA

Where two headings read alike, the source gives them in different places.

This test addresses human DGAT1 (Homo sapiens, UniProt O75907). In words: Human DGAT1 IC50 enzyme assay (Flashplate, 14C-labeled acyl-CoA). Type of test: biochemical.
Setting [1] is: read-out: hDGAT1 IC50(nM) Average, average of first and second.
The mark [2] stands for this setting: read-out: hDGAT1 IC50(nM) First, first determination.
Where [3] appears, read: read-out: hDGAT1 IC50(nM) Second, second determination.

In general, IC50 refers to the concentration that gives 50% inhibition.

`COC(C)(C)Cn1cc(-c2c(C)cc(N3CCOc4ncnc(N)c4C3=O)cc2C)c(C)n1`: the IC50 is, setting by setting: under setting [1], 91.7 nM; under setting [2], 104 nM; under setting [3], 79.1 nM.
On the same counts, the results for `Cc1cc(N2CCOc3ncnc(N)c3C2=O)cc(C)c1-c1cn(CC(C)(F)F)nc1C` are 38 nM, 46.1 nM and 29.8 nM.
